## Measured affinities in a library of Ab-14 light chain variants

Data: MIT Lincoln Laboratory AlphaSeq set, Li et al. 2023, doi:10.1038/s41467-023-39022-2, as distributed in FLAb.

Target peptide (SARS-CoV-2 spike, HR2 region): PDVDLGDISGINAS

Ab-14 is the parent antibody, in scFv form: VH, then the linker GGGGSGGGGSGGGGS, then VL. The heavy chain is unchanged in all variants.
VH: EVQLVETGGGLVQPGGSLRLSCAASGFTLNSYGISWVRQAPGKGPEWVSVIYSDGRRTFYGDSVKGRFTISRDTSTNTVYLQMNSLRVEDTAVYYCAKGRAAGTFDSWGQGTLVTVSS
VL: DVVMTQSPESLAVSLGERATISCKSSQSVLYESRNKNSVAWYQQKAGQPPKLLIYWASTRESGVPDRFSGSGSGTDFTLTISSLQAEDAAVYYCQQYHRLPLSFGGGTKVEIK

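These sequences belong to a second round, designed from the earlier measurements on random variants of the parent. Several design methods are mixed in this list. AlphaSeq pools MATa yeast showing the antibodies with MATalpha yeast showing the peptide. Mating (16 h, 30 °C) was followed by selection of diploids and sequencing of their barcodes. The ratio of observed to expected reads was calibrated, replicate by replicate, on BCL2-family standards whose Kd was known from biolayer interferometry. Mating was done six times.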

Variants are written as CDR1, CDR2 and CDR3 of the light chain (limits as in the source). Parent: KSSQSVLYESRNKNSVA, WASTRES, QQYHRLPLS. Variants here have at most six changes. Scale: log10 of Kd in nM, estimated from mating counts; low values are strong binders. An entry "nd" has no value in the source: the pair was not observed among the diploids in that replicate. This suggests poor binding but is not conclusive.

Variant KFQQSVGYETRNKNSVA | EASQRES | QQYHRLPLS gave -0.01, -0.06, -0.05, -0.09, -0.20, 0.17. Variant KFGCGVLYESRNKNSVA | GASTRES | QQYHRLPLS gave 0.27, -0.04, -0.10, 0.03, -0.05, 0.12. For KSSQSVLYESANKNVVA | GASTAES | QQYHRLELS, the assay gave nd, nd, nd, nd, nd, nd. Variant SLMQSVLYESRNKNSVA | HASCRED | QQYHRLPLS showed 0.79, 0.20, 0.10, 0.12, 0.46, 0.56. Variant KSSQSYLYESVNKNSVA | HASTRES | QQYHRLPLS gave 0.41, 0.33, 0.43, 0.22, 0.03, 0.57. Variant KVQQSWLYESRNKNSVA | NASYRES | QQYHRLPLS showed 0.35, 0.35, 0.08, 0.34, 0.35, 0.49. With KSSQSVLYESRNKNHVA | HASTRES | QQYHRLRLS the result was 1.80, 1.71, 2.34, nd, 1.26, 0.83.

Variant KMSQSVLMEMRNKNSVA | DASLRES | QQYHRLPLS showed 0.20, -0.07, -0.37, -0.21, -0.47, -0.10. With KLSQSQLYESRNKNSVA | HASTRES | QDYHRLPLS the result was 0.17, -0.21, -0.02, -0.32, -0.07, 0.10. Variant KLSQSVGYESRNKNSVA | GASTRES | QQYHRLPLS gave 0.04, -0.10, -0.21, -0.20, -0.25, -0.01. With KMSQSVMMESRNKNSVA | EASTRES | QQYHRLPLS the result was 0.13, -0.21, -0.15, -0.24, -0.22, -0.06. Variant KSSQSPLYESRNKNSVA | WASTRED | QQYHRLPLS showed 1.57, 1.49, 1.94, 2.21, 1.41, 2.16. Variant KSSKSVLYCSRNKNSVA | WANTRER | QQYHRLPLS showed nd, nd, nd, nd, nd, nd. Variant KHSQSVLYESRNKNSVA | EASTRES | QQYHRLPLS gave -0.16, -0.17, 0.02, -0.30, -0.16, -0.02.

For KSSQSVLYESRNKNSVA | WGSTRES | QQYHRLPLS, the assay gave 3.42, 2.63, 2.17, 2.42, 2.35, 2.15. Variant KVSGSMLYESRNKNSVA | EASTRES | QQYHRLPLS gave -0.23, -0.42, -0.45, -0.44, -0.45, -0.23. For KLQQQWLYESRNKNSVA | NASTREE | QQYHRLPLS, the assay gave -0.07, -0.19, -0.19, -0.40, -0.25, -0.13. Variant KSSQSVLYESSNKNSVA | EASTRES | QQYHRLPLS showed 0.53, 0.43, 0.34, 0.43, 0.56, 0.57. With KLSQSVLYESRNWNSVA | EASTRES | QQYHRLPLS the result was 0.43, -0.32, -0.39, -0.12, -0.37, -0.19. For KLQQSHLYESRMKNSVA | NASTRMS | QQYHRLPLS, the assay gave 0.24, 0.31, 0.02, 0.15, 0.45, 0.32. Variant KVSQSGLYGSRNKWSVA | NASTRES | QQYHRLPLD showed 1.91, 1.57, 2.46, 2.10, 2.36, 2.13.

Variant KSSQSVLYESRNKNAVA | WASTRES | QQYHRLQLS showed nd, nd, nd, nd, nd, nd. With KLEQSANYESRNKNSVA | NASTRES | QQYHRLPLS the result was 0.20, 0.28, 0.51, -0.04, 0.01, 0.09. With KLQQSQEYESRNKNSVA | NASTRES | QQYHRLPLS the result was 0.19, 0.36, -0.15, -0.08, -0.27, 0.53. With KLSQSELYESRNKNSVA | NASTRLM | QQYHRLPLS the result was 0.49, 0.76, 0.55, 0.17, 0.57, 0.49. For KLSMSGLYESRNKNSVA | EASTRES | QDYHRLPLS, the assay gave 2.09, 2.70, 1.99, 1.71, 3.36, 1.25. Variant KMSQSVLYESQNSNSVA | HASQRMS | QQYHRLPLS showed -0.02, -0.24, -0.08, -0.53, -0.01, 0.35. With KSSQHVLYESRNKNSVA | KASTRES | QQYHRLPLS the result was 0.90, 1.12, 1.14, 1.19, 0.97, 1.54.

Variant KSSQSGLYEERNKNSVA | QASTRES | QQYHRLPLS showed 0.34, 0.64, 0.65, 0.55, 1.72, 0.74. For KCSQSVLYEGRNKNSVA | AASTRES | QQYHRLPLS, the assay gave -0.04, -0.25, -0.31, -0.30, -0.12, -0.04. For KLPQSVWYESRNKNSVA | EASTRES | QQYHRLPLS, the assay gave 0.20, 0.12, 0.11, 0.11, 0.00, 0.07. Variant KSSQSVLYESRNPNSVA | WASTRES | QAYHRLPLS gave nd, 3.31, nd, nd, nd, nd. With KLEQSENYESRNKNSVA | NASTRES | QQYHRLPLS the result was 0.38, 0.39, 0.24, 0.18, 0.46, 0.47. Variant KLPQSDLYESRNKNSVA | QASTRES | QQYHRLPLS showed -0.30, -0.17, -0.43, -0.41, -0.32, -0.30. Variant KSSQSDLYESRNKNSVA | WASTRCS | QQYHRLPLS showed 1.44, 2.36, 2.28, 3.18, nd, nd.

Variant KYSQSVLYESRSKNSVA | WASTRES | QQYHRMPLS gave 3.12, 2.30, nd, 1.59, 2.15, nd. For KLQQSWLYESRNKNSVA | EASTRES | QQYHRLPLS, the assay gave 0.29, 0.03, 0.12, -0.15, -0.03, 0.22. Variant KLSQSELYESRNKNSVA | GASTRLS | QQYHRLPLS gave -0.08, -0.35, -0.04, -0.52, -0.61, -0.31. Variant KSSQSELYESRNKNSVA | WASTRES | QQYQTLPLS gave 3.16, 1.51, 1.34, 2.21, 2.26, 1.62. For KSSQSSLYESRNKNSVA | WASTRGS | QQYHRLPLS, the assay gave 1.37, 2.32, 1.51, nd, nd, 2.55. Variant KSSQSVLYESRNKNSVA | WASTRES | QQKRRLPLS showed nd, nd, nd, nd, nd, nd. With KLSQSVLMESRNSNSVA | DASTRES | QQYHRLPLS the result was 0.05, -0.13, -0.14, -0.23, -0.31, -0.11.

Variant KSSISYLFEKRNKNSVA | EASTRES | QQYHRSPLS gave nd, nd, nd, nd, nd, nd. Variant KISQSVLYESRNKNAVA | EASTRES | QQYHRLPLS gave -0.38, -0.85, 0.02, -0.63, -0.78, 1.21. Variant KASQSYLYESRNKNSVA | GASTRES | QQYHRLPLS showed -0.03, -0.47, -0.39, -0.50, -0.37, 0.02. With KLDQSMLYESRNKNSVA | NASTRES | QQYHRLPLS the result was -0.20, -0.24, -0.45, 0.04, 0.02, 0.15. Variant KLSQSWLYESRNSNSVA | NASTRMS | QQYHRLPLS showed -0.34, -0.10, -0.23, -0.40, -0.25, -0.16. With KYSQSVLGEQRNKNSVA | DISTRES | QQYHRLPLS the result was 0.28, 0.13, 0.02, -0.12, 0.05, -0.08. With KLSQSMLYESRNKNAVA | EASTRES | QQYHRLPLS the result was 0.03, -0.05, -0.18, -0.22, -0.24, -0.01.

The first 5 variants above that were never detected:

CDR-L1	CDR-L2	CDR-L3	log10 Kd, replicates
KSSQSVLYESANKNVVA	GASTAES	QQYHRLELS	nd, nd, nd, nd, nd, nd
KSSKSVLYCSRNKNSVA	WANTRER	QQYHRLPLS	nd, nd, nd, nd, nd, nd
KSSQSVLYESRNKNAVA	WASTRES	QQYHRLQLS	nd, nd, nd, nd, nd, nd
KSSQSVLYESRNKNSVA	WASTRES	QQKRRLPLS	nd, nd, nd, nd, nd, nd
KSSISYLFEKRNKNSVA	EASTRES	QQYHRSPLS	nd, nd, nd, nd, nd, nd

The authors' rule: three or more of the six replicates give a measured affinity, fewer mean a poor binder. Of ten entries with the parent sequence, four were seen in most replicates (averages 0.34 to 2.37), three in one and three in none, so single entries are noisy. The range of this assay differs from that of the first round, and the authors advise against merging the two. Empty control strains, which show no peptide, gave a signal in 4% of pairings with all light chain designs; the median was 2.64 and 95% of these signals were weaker than 1.59. No background was subtracted.